These are literature values, as cited in patent US5385911A, “Anti-herpes castanospermine esters” (priority 1990, dated 1995).

Data set [1] deals with viral protein glycosylation. The following applies: cited from earlier work.
The next data set relates to influenza infected cells. To be noted: cited from earlier work.

As for `OC[C@H]1OC(O)[C@@H](F)[C@@H](O)[C@@H]1O` (stereo partly drawn) [2-deoxy-2-fluoro-D-mannose], the “inhibition of viral protein glycosylation” value in data set [1] is listed as “preventing the glycosylation of viral membrane protein”. For the same compound, the “antiviral activity against influenza infected cells” value in the data set on influenza infected cells was “exhibit antiviral activity against influenza infected cells”.
